Data published in patent US10925881B2, “Treatment of conditions associated with hyperinsulinaemia” (Tensha Therapeutics, Inc., priority 2014, dated 2021).

Assays:
[1] = target: BRD4(2) (Homo sapiens (Human), UniProt O60885); experiment: Alpha-assay binding, BRD4 site 2; conditions: 12-point dose response curve, read-out: Bio-assay IC50 BRD4(2)
[2] = target: BRD4(1) (Homo sapiens (Human), UniProt O60885); experiment: Alpha-assay binding, BRD4 site 1; conditions: 12-point dose response curve, read-out: Bio-assay IC50 BRD4(1)
Procedure: The binding activity of lead compounds with the BRD4 site 1 was determined by Alpha-assay with a 12-point dose response curve.

Cc1sc2c(c1C)C(c1ccc(Cl)cc1)=N[C@@H](CC(=O)NCCCN1CCN(C)CC1)c1nnc(C)n1-2 (stereo in doubt) [(S)-JQ35]
IC50 [1]: 6.13 nM | IC50 [2]: 24.3 nM
